“And” between values parts separate entries of the source, which are not always exact repeats. Identical values can stand only once.
Tested on: advanced metastatic solid tumors
Conditions: human, in vivo

C[C@@H]1COCCN1c1cc(-c2ccnn2C)c2ccnc(-c3ccn[nH]3)c2n1 [BAY 1895344, 2-[(3R)-3-methylmorpholin-4-yl]-4-(1-methyl-1H-pyrazol-5-yl)-8-(1H-pyrazol-5-yl)-1,7-naphthyridine]
median treatment duration of the 4 responders: 347 days | objective responders/patients: 1/8 and 1/3 and 2/2 | objective response rate (ORR): 30.7% | partial responses (PRs): 7 | patients with SD≥4 m: 25 | patients with durable SD (SD≥4 m): 22 patients | patients with durable SD≥4 m: 3 patients | reduction of the tumor size in one patient with stable disease: −11% | responders (CR, PR or SD≥4 m): 5 | responders (PR and SD≥4 m): 32 | responders with SD≥4 m: 1 | response (PR or SD≥4 m): did not experience any type of response

— US20220117973A1, “THE ATR KINASE INHIBITOR BAY1895344 FOR USE IN THE TREATMENT OF A HYPER-PROLIFERATIVE DISEASE” (Bayer Aktiengesellschaft, priority 2019, published 2022)
